Source: patent US7915223B2, “Antimicrobial agents” (priority 2004, dated 2011)

Tests used:
[1] = tested on: methicilin resistant Staphylococcus aureus (CI 15903); test: microbe, parasite or virus in culture; format: cell-based; conditions: read-out: MIC MR S.a.
E. coli = test: Susceptibility to plasma proteases (MIC after pre-incubation in human plasma), E. coli; conditions: after 18 hours incubation

C[C@@H](O)[C@H]1C(=O)N2C(C(=O)O)=C(SCCN=CN)C[C@H]12 [Imipenem]
MIC [1]: > 50 µM

CCCCCCCCCCCC(=O)N[C@@H](CCCCN)C(=O)NCCCCCCCC(=O)N[C@@H](CCCCN)C(=O)NCCCCCCCC(=O)N[C@@H](CCCCN)C(=O)NCCCCCCCC(=O)N[C@@H](CCCCN)C(=O)NCCCCCCCC(=O)N[C@@H](CCCCN)C(=O)NCCCCCCCC(=O)N[C@@H](CCCCN)C(N)=O
inactivation after incubation with plasma enzymes (E. coli): did not display any degree of inactivation
